Results taken from patent US20040018528A1, “Novel biomarkers of tyrosine kinase inhibitor exposure and activity in mammals” (Sugen, Inc., priority 2002, published 2004).

Test system: soluble VEGFR2
Conditions: Trials A, B and C; chronic time points (13 days or more) after start of treatment

Compound: CCN(CC)CCNC(=O)c1c(C)[nH]c(C=C2C(=O)Nc3ccc(F)cc32)c1C [Compound 1, 5-(5-Fluoro-2-oxo-1,2-dihydro-indol-3-ylidenemethyl)-2,4-dimethyl-1H-pyrrole-3-carboxylic acid (2-diethylamino-ethyl)-amide]
- patients with decrease of plasma soluble VEGFR2: greater than 90%
